According to publication PMC7765948, “Spadin Modulates Astrocytic Passive Conductance via Inhibition of TWIK-1/TREK-1 Heterodimeric Channels” (International Journal of Molecular Sciences, 2020):

Key:
[1] = test system: mouse TREK-1; set-up: method as in PMID 20405001, PMID 22022421, PMID 32317978; conditions: low concentrations; cited from earlier work
[2] = test system: astrocytic passive conductance in mouse hippocampal slices; test: Whole-cell patch clamp of astrocytic passive conductance in hippocampal slices; assay type: cell-based, mouse (C57BL/6)
Description: Lentiviruses were injected into hippocampal CA1 region (AP: 0.17, ML: 0.17, DV: 0.19) of 7–8 week-old wild-type C57BL/6 mice. The virus-infected mouse brain slices (350 μm) containing the hippocampus were […]. Individual hippocampal slices were transferred to a recording chamber, which was constantly perfused with artificial cerebrospinal fluid (ACSF) recording solution containing (in mM) 130 NaCl, 24 NaHCO3, 3.5 KCl, 1.25 NaH2PO4, 1.5 CaCl2, 1.5 MgCl2, and 10 glucose saturated with 95% O2–5% CO2 at pH 7.4. Brain slices were co-loaded with SR-101 (Sigma Aldrich, St. Louis, MO, USA; 1 mM) dye to identify the location of astrocytes in the CA1 region. The slices were recovered at room temperature for at least 1 h before SR101 incubation and electrophysiological recording. […] Whole-cell patch recordings were performed on hippocampal astrocytes with a voltage-clamp configuration using an Axopatch 700B (Axon Instruments, Union City, CA, USA). All data are presented as means ± standard error of the mean (s.e.m). The significance of data for comparison was assessed by Student’s t-test (paired t-test) or one-way ANOVA followed by Turkey’s post hoc test, and significance levels are given as: n.s: not significant, * p < 0.05, ** p < 0.01, *** p < 0.001, and **** p < 0.0001. To obtain the IC50 value for dose-dependent inhibition, concentration–response data were fitted with the Hill equation. Prism9.0 software (GraphPad Software, San Diego, CA, USA) was used for carrying out the statistical analysis.

[3] = test system: TWIK-1(K274E); test: Whole-cell currents in COS-7 cells expressing TWIK-1(K274E); assay type: cell-based, mouse; conditions: −150 mV, 10 µM spadin
Description: cDNAs encoding for full-length mouse TREK-1 (GenBank accession no. NM_010607) and mouse TWIK-1 (NM_008430) were obtained by using an RT–PCR based gateway cloning (ThermoFisher, Waltham, MA, USA). TWIK-1 K274E mutant was generated using full-length cDNA as templates via the EZchange site-directed mutagenesis kit (Enzynomics, Daejeon, Korea). All constructs were cloned into pDEST-IRES2-GFP vectors by gateway cloning. […]
Current–voltage (I–V) curves were recorded from COS-7 cells expressing TWIK-1 K274E, TREK-1 or concatenated TWIK-1-TREK-1-IRES2-GFP. […] The I–V relations were measured by applying 1-s ramp pulses (from −150 mV to +50 mV) from a holding potential of −60 mV. […] Currents were analyzed with Clampfit software (Axon instruments, Union City, CA, USA). […]
All data are presented as means ± standard error of the mean (s.e.m). The significance of data for comparison was assessed by Student’s t-test (paired t-test) or one-way ANOVA followed by Turkey’s post hoc test, and significance levels are given as: n.s: not significant, * p < 0.05, ** p < 0.01, *** p < 0.001, and **** p < 0.0001. […]

[4] = hippocampal slices, 10 μM spadin

**Q.** With CC[C@H](C)[C@H](NC(=O)[C@@H]1CCCN1C(=O)CNC(=O)[C@H](CO)NC(=O)[C@H](Cc1c[nH]c2ccccc12)NC(=O)[C@H](CCCNC(=N)N)NC(=O)[C@@H]1CCCN1C(=O)[C@H](CC(C)C)NC(=O)[C@@H]1CCCN1C(=O)[C@H](C)NC(=O)[C@@H](N)Cc1ccc(O)cc1)C(=O)NCC(=O)N[C@H](C(=O)N[C@@H](CO)C(=O)N[C@@H](Cc1c[nH]c2ccccc12)C(=O)NCC(=O)N[C@@H](CC(C)C)C(=O)N[C@@H](CCCNC(=N)N)C(=O)O)C(C)C [spadin] as the compound, how does the “inhibition of mouse TREK-1” value [1] read?
**A.** Its value is “inhibited by spadin at low concentrations”.

**Q.** And the “residual conductance with spadin” value ([2]; 10 µM spadin, Figures 6 and 7)?
**A.** Its value is ~30%.

**Q.** What about the “I–V relationship with spadin” value [2, 4] of the same compound?
**A.** The value was “maintained linearity, and the slope became much gentler”.

**Q.** And the astrocytic passive conductance [2, 4]?
**A.** Its astrocytic passive conductance is “very substantial reduction in astrocytic passive conductance”.

**Q.** What about the “reversal potential (Vrev) after treatment” value ([2]; hippocampal slices, 10 μM spadin, control −81.1 ± 1.05 mV, mean ± s.e.m.) of the same compound?
**A.** The value was −76.6 ± 0.82 mV.

**Q.** And the “outward current remaining, of control” value ([2]; hippocampal slices, +40 mV, 10 μM spadin, ACSF pH 7.4)?
**A.** Its value is 30%.

**Q.** What about the “inward current remaining, of control” value ([2]; hippocampal slices, −160 mV, 10 μM spadin, ACSF pH 7.4) of the same compound?
**A.** The value was 40%.

**Q.** What about the “TWIK-1(K274E)-mediated currents with spadin” value [3] of the same compound?
**A.** The value was “not affected”.
